According to PMC8081182, “A novel preparative method for nanoparticle albumin-bound paclitaxel with high drug loading and its evaluation both in vitro and in vivo” (PLoS ONE, 2021):

Target: HSA (Homo sapiens, UniProt P02768)
Assay: Circular dichroism analysis of HSA secondary structure
Type: physicochemical
Settings: CD 180-260nm, HSA 0.8mg/mL

HSA: human serum albumin, bought from Baxter AG; blank protein reference in CD analysis
HSA secondary structure: Antiparallel: 19.40%
HSA secondary structure: Beta-Turn: 17.00%
HSA secondary structure: Helix: 23.20%
HSA secondary structure: Rndm. Coil: 38.90%
HSA secondary structure: Total Sum: 104.50%
HSA secondary structure: parallel: 5.90%
